scFv variants of Ab-14 (light chain) against a SARS-CoV-2 spike peptide

Binding partner: SARS-CoV-2 spike HR2 peptide, sequence PDVDLGDISGINAS.

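The starting antibody came from a phage panning campaign against this peptide. Variants in AAYL50 differ from the parent at up to three CDR positions; double and triple changes were sampled at random. In AlphaSeq, yeast of one mating type display the scFv and yeast of the other type display the target. Pairs that bind mate more often; barcode pairs of the diploids are counted by sequencing. A regression on co-assayed BCL2-family reference pairs converts the normalised counts of each replicate to an apparent Kd. There are three technical replicates.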

Ab-14 is the parent antibody, in scFv form: VH, then a (GGGGS)3 linker, then VL. The heavy chain is unchanged in all variants.
VH: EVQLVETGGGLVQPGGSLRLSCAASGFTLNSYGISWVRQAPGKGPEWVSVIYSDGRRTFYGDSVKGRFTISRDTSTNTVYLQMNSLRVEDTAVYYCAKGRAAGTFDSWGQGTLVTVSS
VL: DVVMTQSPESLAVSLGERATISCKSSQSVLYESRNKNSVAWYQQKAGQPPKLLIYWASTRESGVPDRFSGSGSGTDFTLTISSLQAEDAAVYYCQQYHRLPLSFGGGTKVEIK

Changes read parent residue, position, new residue, counted from the first residue of the VL shown. This list gathers variants with a substitution at K24 (VL, numbered from residue 1). The Kd shown is the geometric mean over detected replicates; a lower Kd is a better binder. A pair that was not seen in any replicate is written "no signal"; this usually means weak binding, but a binder can also be missed. Entries are sorted by rising average, undetected variants last. Empty control strains, which show no peptide, gave a signal in 18% of pairings with library AAYL50; the median was 15 µM and 95% of these signals were weaker than 970 nM. No background was subtracted.

* K24Q/N35D/H98V = 7.3 nM (3 of 3 replicates)
* K24S/Y31Q/N35T = 7.4 nM (3 of 3 replicates)
* K24H/S28D/T59R = 16 nM (3 of 3 replicates)
* K24T = 19 nM (3 of 3 replicates)
* K24F = 21 nM (3 of 3 replicates)
* K24V/N35H/S62E = 23 nM (3 of 3 replicates)
* K24Y/E32H = 49 nM (3 of 3 replicates)
* K24L/L30N/N35M = 50 nM (3 of 3 replicates)
* K24L/L30G/S62M = 55 nM (3 of 3 replicates)
* K24G/S25C/T59G = 74 nM (3 of 3 replicates)
* K24L/N35E/Y97K = 84 nM (3 of 3 replicates)
* K24G/Q27T/S33T = 120 nM (3 of 3 replicates)
* K24A/S28Q/P101N = 140 nM (3 of 3 replicates)
* K24R/K36N/L100T = 150 nM (3 of 3 replicates)
* K24E/K36C/L102H = 230 nM (3 of 3 replicates)
* K24F/S25M/N35F = 260 nM (3 of 3 replicates)
* K24N/K36H/L100F = 430 nM (2 of 3 replicates)
* K24L/S28A/E32P = 510 nM (3 of 3 replicates)
* K24I/E32Q/S103D = 780 nM (3 of 3 replicates)
* K24I/V39H/Y97C = 840 nM (1 of 3 replicates)
* K24G/S38H/Q95H = 980 nM (1 of 3 replicates)
* K24N/T59S/Y97V = 1.8 µM (2 of 3 replicates)
* K24V/S58I/L100N = 1.8 µM (1 of 3 replicates)
* K24E/S62K/H98I = 1.9 µM (3 of 3 replicates)
* K24G/V29C/N35Y = 2.2 µM (1 of 3 replicates)
* K24G/E61Y/S103F = 2.9 µM (2 of 3 replicates)
* K24W/N37M/L100Y = 17 µM (3 of 3 replicates)
* K24V/Q27Y/A57V = 30 µM (1 of 3 replicates)
* K24T/E32V/R34Q = 110 µM (1 of 3 replicates)
* K24D/R60P/Q96V = 290 µM (1 of 3 replicates)
* K24T/N37Q/S38N = no signal (0 of 3 replicates)
* K24N/V39P/R99L = no signal (0 of 3 replicates)
* K24W/V29Y/R60V = no signal (0 of 3 replicates)
* K24Y/R60P/R99Y = no signal (0 of 3 replicates)
* K24P/E32D/Y97Q = no signal (0 of 3 replicates)
* K24R/S28T/S58L = no signal (0 of 3 replicates)
* K24W/T59A/L102H = no signal (0 of 3 replicates)
* K24G/V39T/H98E = no signal (0 of 3 replicates)
* K24M/V29A/W56V = no signal (0 of 3 replicates)
* K24L/S26F/S58K = no signal (0 of 3 replicates)
* K24P/A40V = no signal (0 of 3 replicates)
* K24R/V29K/Q95I = no signal (0 of 3 replicates)
* K24A/K36W/A40H = no signal (0 of 3 replicates)
* K24V/S28R/P101C = no signal (0 of 3 replicates)
* K24Q/L102W = no signal (0 of 3 replicates)
* K24H/S25Q/A57Y = no signal (0 of 3 replicates)
* K24N/Q27S/R60S = no signal (0 of 3 replicates)

Top 8 of the variants detected in all replicates, tightest first:

- K24Q/N35D/H98V = 7.3 nM (3 of 3 replicates)
- K24S/Y31Q/N35T = 7.4 nM (3 of 3 replicates)
- K24H/S28D/T59R = 16 nM (3 of 3 replicates)
- K24T = 19 nM (3 of 3 replicates)
- K24F = 21 nM (3 of 3 replicates)
- K24V/N35H/S62E = 23 nM (3 of 3 replicates)
- K24Y/E32H = 49 nM (3 of 3 replicates)
- K24L/L30N/N35M = 50 nM (3 of 3 replicates)

The measurements come from Engelhart et al. 2022 (doi:10.1038/s41597-022-01779-4) through the FLAb antibody collection.